Measured values: paper PMC9568543, “Bee-safe peptidomimetic acaricides achieved by comparative genomics” (Scientific Reports, 2022)

Chains of the proteins cited; added tags and fusions are not shown.
UniProt A0A7T1TE40, entry or part of it: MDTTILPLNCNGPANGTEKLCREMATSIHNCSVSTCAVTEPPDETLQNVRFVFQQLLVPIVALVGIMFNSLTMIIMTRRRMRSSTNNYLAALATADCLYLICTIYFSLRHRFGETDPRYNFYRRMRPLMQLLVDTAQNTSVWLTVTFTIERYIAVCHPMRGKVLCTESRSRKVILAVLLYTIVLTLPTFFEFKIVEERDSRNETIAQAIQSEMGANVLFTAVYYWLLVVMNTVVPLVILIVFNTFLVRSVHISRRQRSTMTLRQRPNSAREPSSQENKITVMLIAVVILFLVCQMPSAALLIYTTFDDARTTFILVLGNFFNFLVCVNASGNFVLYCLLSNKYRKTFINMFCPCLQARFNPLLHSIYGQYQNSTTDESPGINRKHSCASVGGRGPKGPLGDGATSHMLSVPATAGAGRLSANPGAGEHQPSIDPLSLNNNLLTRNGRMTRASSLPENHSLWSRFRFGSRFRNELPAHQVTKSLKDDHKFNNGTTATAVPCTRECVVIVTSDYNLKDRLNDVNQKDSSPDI

target: T1, Varroa mite proctolin receptor (VdProctR) (Varroa destructor, UniProt A0A7T1TE40); test: Receptor activity assay (aequorin luminescence), CHO cells transiently expressing the receptor, first set of ligands; format: cell-based; conditions: EC50 relative to proctolin, first set (transient expression)
Experimental: (§1) Cells were transiently transfected with pcDNA3.1 + containing the open reading frame of Varroa mite proctolin receptor (VdProctR) or empty vector using TransIT®-2020 (Mirus Bio). Approximately thirty hours after transfection, the cells were collected and preincubated with coelenterazine h for the functional assay, as previously described[30],[31],[52]. The ligands in serial dilutions were loaded into 96-well opaque plates. Cells treated with coelenterazine h were injected into each well on an Orion microplate luminometer (Berthold) luminescent plate reader. The luminescence was measured for 20 s immediately after the cell injections. Data analyses were performed to determine the accumulated luminescence value for 20 s after extraction of blank-well luminescence. A dose–response curve was generated and the EC50 (50% effective concentration) was calculated in Origin 7 (OriginLab) as described in Jiang et al.[31],[53]. The three biological replications were regressed for the dose–response curves with 95% confidence intervals (Table 1). For the tests of the second set of ligands, we used the cell line that stably expressed VdProctR, which were selected by Zeocin for 5 passages.

Compound	Fold change
CC(C)C[C@H](NC(=O)[C@H](Cc1ccc(O)cc1)NC(=O)[C@H](N)CCCNC(=N)N)C(=O)N1CCC[C@H]1C(=O)N[C@H](C(=O)O)[C@@H](C)O [Analog 2330, [dR]YLPT]	35.2
CC(C)C[C@H](NC(=O)[C@H](Cc1ccc(O)cc1)NC(=O)[C@@H](N)CCCNC(=N)N)C(=O)N1[C@H](C(=O)N[C@H](C(=O)O)[C@@H](C)O)C[C@@H]2CCCC[C@@H]21 [Analog 2336, RYL[Oic]T]	7.5
CC(C)C[C@H](NC(=O)[C@H](Cc1ccc(O)cc1)NC(=O)[C@@H](N)CCCNC(=N)N)C(=O)N1CCC[C@H]1C(=O)N[C@H](C(=O)O)[C@@H](C)O [Proctolin, RYLPT]	1
RYL[Aib]T [Analog 2335]	11.0
RYL[HyP]T [Analog 2334]	2.8
RYL[β3P]T [Analog 2331]	32.3

target: T1, Varroa mite proctolin receptor (VdProctR); test: Receptor activity assay, CHO cell line stably expressing the receptor, second set of ligands; format: cell-based; conditions: EC50 relative to proctolin, second set (stable expression)
Experimental: as §1

Compound	Fold change
CC(C)C[C@H](NC(=O)[C@H](Cc1ccc(O)cc1)NC(=O)[C@@H](N)CCCNC(=N)N)C(=O)N1CCC[C@H]1C(=O)N[C@H](C(=O)O)[C@@H](C)O [Proctolin, RYLPT]	1.0
